Patent US9481688B2, “(Thieno[2,3-b][1,5]benzoxazepin-4-yl)piperazin-1-yl compounds as dual activity H1 inverse agonists/5-HT2A antagonists” (Eli Lilly and Company, priority 2011, dated 2016)

Tested on: Wistar rats
Assay: Sleep and behavioral monitoring in rats (EEG, EMG, motion)
Details: rat, doses up to at least 1.2 mg/Kg

Cc1ccc2c(c1)Oc1sc(Cl)cc1C(N1CCN(CC(C)(C)C(=O)O)CC1)=N2 [Example 3, 3-[4-(2-chloro-8-methyl-thieno[2,3-b][1,5]benzoxazepin-4-yl)piperazin-1-yl]-2,2-dimethyl-propanoic acid dihydrochloride]
no undesired occurrences: undesired occurrences of REM inhibition | undesired occurrences of rebound insomnia | undesired occurrences of reduction in LMI

Structures can show the parent of a compound that is named as a salt.
